Laboratory results published in paper PMC9655341 (Molecules, 2022).

Protein sequences, listed by entry. Tags and fused reporters are not part of them.
UniProt P48039, whole entry: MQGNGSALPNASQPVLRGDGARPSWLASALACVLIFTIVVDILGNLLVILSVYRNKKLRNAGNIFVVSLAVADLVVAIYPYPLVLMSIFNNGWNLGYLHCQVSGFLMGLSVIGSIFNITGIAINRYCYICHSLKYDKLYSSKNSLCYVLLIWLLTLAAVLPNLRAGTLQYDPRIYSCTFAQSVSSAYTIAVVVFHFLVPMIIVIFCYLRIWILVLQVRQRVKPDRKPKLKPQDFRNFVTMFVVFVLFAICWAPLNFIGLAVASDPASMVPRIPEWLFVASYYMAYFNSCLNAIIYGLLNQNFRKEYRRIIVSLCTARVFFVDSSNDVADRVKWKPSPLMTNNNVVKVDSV
UniProt P49286, whole entry: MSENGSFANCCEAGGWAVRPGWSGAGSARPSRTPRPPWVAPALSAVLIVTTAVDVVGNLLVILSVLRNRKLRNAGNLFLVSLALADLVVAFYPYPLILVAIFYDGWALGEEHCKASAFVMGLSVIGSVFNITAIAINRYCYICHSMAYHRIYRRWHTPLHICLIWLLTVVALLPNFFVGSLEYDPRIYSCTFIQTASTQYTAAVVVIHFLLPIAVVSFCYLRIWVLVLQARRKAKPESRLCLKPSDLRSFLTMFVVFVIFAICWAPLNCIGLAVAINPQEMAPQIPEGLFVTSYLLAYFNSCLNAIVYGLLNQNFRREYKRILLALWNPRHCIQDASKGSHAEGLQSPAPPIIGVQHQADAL

Assays:
human MT1 receptors [1] = molecular target: T1, human MT1 receptors (Homo sapiens, UniProt P48039); assay: Binding affinity at human MT1 receptors stably transfected in CHO cells, 2-[125I]iodomelatonin
human MT2 receptors [2] = molecular target: T2, human MT2 receptors (Homo sapiens, UniProt P49286); assay: Binding affinity at human MT2 receptors stably transfected in CHO cells, 2-[125I]iodomelatonin
human MT1 receptors [3] = molecular target: T1, human MT1 receptors; assay: Intrinsic activity at human MT1 receptors stably transfected in CHO cells; details: MT1, melatonin = 1.00
human MT2 receptors [4] = molecular target: T2, human MT2 receptors; assay: Intrinsic activity at human MT2 receptors stably transfected in CHO cells; type: biochemical; details: MT2, melatonin = 1.00

## CC(=O)NCCc1cn(C)c2c(C)c(C)ccc12
Human MT1 receptors [1]
  MT1 pKi (Mean ± SD): 6.11 ± 0.15
Human MT2 receptors [2]
  MT2 pKi (Mean ± SD): 6.68 ± 0.04
Human MT1 receptors [3]
  MT1 Intrinsic Activity: 0.38 ± 0.14
Human MT2 receptors [4]
  MT2 Intrinsic Activity: 0.52 ± 0.05
